Values quoted from earlier work as cited in article PMC7566471, “A new perspective on the interaction between the Vg/VGLL1-3 proteins and the TEAD transcription factors” (Scientific Reports, 2020).

The chains behind the UniProt entries cited, without tags or fusion partners. Residues count along the entry.
UniProt Q15561, whole entry: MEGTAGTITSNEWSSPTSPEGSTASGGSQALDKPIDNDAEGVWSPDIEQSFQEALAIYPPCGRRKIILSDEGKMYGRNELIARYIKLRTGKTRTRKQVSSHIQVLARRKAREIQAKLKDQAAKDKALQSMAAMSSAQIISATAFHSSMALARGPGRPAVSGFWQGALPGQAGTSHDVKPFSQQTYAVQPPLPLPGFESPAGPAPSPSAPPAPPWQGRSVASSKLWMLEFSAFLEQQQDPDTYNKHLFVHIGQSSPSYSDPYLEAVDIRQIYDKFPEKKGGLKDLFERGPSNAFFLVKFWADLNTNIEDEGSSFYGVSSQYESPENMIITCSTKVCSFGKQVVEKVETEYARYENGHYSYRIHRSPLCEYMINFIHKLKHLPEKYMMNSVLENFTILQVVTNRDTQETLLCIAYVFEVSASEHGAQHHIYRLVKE
UniProt P46937, 50-99: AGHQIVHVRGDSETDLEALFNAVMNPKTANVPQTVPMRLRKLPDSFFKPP

Molecular target: TEAD4 (Homo sapiens) (UniProt Q15561)
Details: cited from earlier work

Substance: YAP 50-99 (from UniProt P46937)
- Kd: 11 nM
